Assay results: PMC11726654 (2024)
Marks after values point to notes of the source that are not given here.

By UniProt entry, the sequences of proteins in these tests, tags left out. Residues count along the entry.
UniProt P53671, 330-632 limits assumed: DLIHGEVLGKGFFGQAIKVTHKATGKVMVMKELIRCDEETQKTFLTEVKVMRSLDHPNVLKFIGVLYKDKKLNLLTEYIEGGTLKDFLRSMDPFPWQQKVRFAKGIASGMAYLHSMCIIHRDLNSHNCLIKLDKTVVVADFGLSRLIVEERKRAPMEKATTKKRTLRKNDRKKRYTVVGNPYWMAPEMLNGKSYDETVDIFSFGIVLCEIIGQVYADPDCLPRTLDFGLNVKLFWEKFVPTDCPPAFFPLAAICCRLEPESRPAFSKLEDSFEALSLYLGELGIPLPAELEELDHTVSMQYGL

Experiments:
LIMK2 [1] = target: T1, LIMK2 (Homo sapiens, UniProt P53671); assay: RapidFire mass spectrometry kinase assay (cofilin phosphorylation); type: biochemical
[2] = target: PAK1-phosphorylated LIMK2 (Homo sapiens, UniProt P53671); assay: RapidFire mass spectrometry kinase assay, PAK1-phosphorylated enzyme; type: biochemical
LIMK2 [3] = target: T1, LIMK2; assay: Cellular NanoBRET target engagement in HEK293 cells; type: cell-based
LIMK2 [4] = target: T1, LIMK2; settings: KdELECT, DiscoverX

For N#CCCN(Cc1ccncc1)C(=O)c1ccc(S(=O)(=O)Nc2ccccc2)cc1 [Compound 55, N-(2-Cyanoethyl)-4-(phenylsulfamoyl)-N-(4-pyridylmethyl)benzamide], the IC50 (LIMK2 [1]) was 85.1 nM, the IC50 [2] was 50.1 nM and the “nanoBRET pIC50 LIMK2” value (LIMK2 [3]) was 5.86 ± 0.16 ^e. The “binding affinity (pKd) LIMK2” value (LIMK2 [4]) was 7.00 ^d.
